Molecular target: Adenosine receptor A1 (Rattus norvegicus, UniProt P25099)
Test: Evaluated for binding affinity against Adenosine A1 receptor

Protein sequences, listed by entry. Tags and fused reporters are not part of them.
UniProt P25099, whole entry: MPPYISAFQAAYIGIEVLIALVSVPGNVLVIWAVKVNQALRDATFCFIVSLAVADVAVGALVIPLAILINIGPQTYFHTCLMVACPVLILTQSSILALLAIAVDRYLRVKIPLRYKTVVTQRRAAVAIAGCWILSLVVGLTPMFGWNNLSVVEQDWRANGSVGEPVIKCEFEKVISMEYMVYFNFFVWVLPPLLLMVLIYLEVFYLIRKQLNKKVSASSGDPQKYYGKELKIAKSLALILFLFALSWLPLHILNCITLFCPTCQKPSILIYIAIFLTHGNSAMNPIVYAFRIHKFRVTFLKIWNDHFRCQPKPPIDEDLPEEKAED

| Structure (SMILES) | Ki [nM] | IC50 [nM] |
| --- | --- | --- |
| Cc1ccccc1-c1nc2c([nH]1)c(=O)n(C)c(=O)n2C | 3.63 | – |
| COc1cccc(-c2nc3c(=O)n(C)c(=O)n(C)c3[nH]2)c1 | 8.71 | – |
| COc1ccc(-c2nc3c([nH]2)c(=O)n(C)c(=O)n3C)cc1 | 0.631 | – |
| CCCn1c(=O)c2nc(C3CC3)[nH]c2n(CCC)c1=O | 41.7 | – |
| OC[C@H]1O[C@@H](n2cnc3c(NCc4ccccc4)ncnc32)[C@H](O)[C@@H]1O [N6-BENZYLADENOSINE] | – | 126 |
